Source: patent US5446152A, “Heterocyclic compounds active in gastro-intestinal pathologies” (priority 1993, dated 1995)

Assays:
[1] = test system: parasympathomimetic activity; conditions: cited from earlier work
[2] = test system: gastro-intestinal motility; conditions: cited from earlier work
dopamine receptors = conditions: cited from earlier work
receptors 5HT4 = conditions: cited from earlier work
rabbit jejunum = assay: Spontaneous peristaltic activity on rabbit jejunum; conditions: Oryctolagus cuniculus, read-out: concentration required to obtain the maximum effect

COc1cc(N)c(Cl)cc1C(=O)NC1CCN(CCCOc2ccc(F)cc2)CC1OC (centres unmarked) [cisapride, reference compound]
direct parasympathomimetic activity [1]: practically no
gastro-intestinal motility / prokinetic activity [2]: stimulates intestinal motility
antagonist property of the dopamine receptors (dopamine receptors): practically no antagonist property of the dopamine receptors
interaction with receptors 5HT4 (receptors 5HT4): interaction with serotoninergic receptors 5HT4
EC (maximum effect) (rabbit jejunum): 0.03 µM
